Data: PMC8807600, “Catalytic trajectory of a dimeric nonribosomal peptide synthetase subunit with an inserted epimerase domain” (Nature Communications, 2022)

Amino acid sequences for entries named in this document (tags omitted). A change or cut given only in a name is not applied to a line headed by its entry.
UniProt G3XCV2: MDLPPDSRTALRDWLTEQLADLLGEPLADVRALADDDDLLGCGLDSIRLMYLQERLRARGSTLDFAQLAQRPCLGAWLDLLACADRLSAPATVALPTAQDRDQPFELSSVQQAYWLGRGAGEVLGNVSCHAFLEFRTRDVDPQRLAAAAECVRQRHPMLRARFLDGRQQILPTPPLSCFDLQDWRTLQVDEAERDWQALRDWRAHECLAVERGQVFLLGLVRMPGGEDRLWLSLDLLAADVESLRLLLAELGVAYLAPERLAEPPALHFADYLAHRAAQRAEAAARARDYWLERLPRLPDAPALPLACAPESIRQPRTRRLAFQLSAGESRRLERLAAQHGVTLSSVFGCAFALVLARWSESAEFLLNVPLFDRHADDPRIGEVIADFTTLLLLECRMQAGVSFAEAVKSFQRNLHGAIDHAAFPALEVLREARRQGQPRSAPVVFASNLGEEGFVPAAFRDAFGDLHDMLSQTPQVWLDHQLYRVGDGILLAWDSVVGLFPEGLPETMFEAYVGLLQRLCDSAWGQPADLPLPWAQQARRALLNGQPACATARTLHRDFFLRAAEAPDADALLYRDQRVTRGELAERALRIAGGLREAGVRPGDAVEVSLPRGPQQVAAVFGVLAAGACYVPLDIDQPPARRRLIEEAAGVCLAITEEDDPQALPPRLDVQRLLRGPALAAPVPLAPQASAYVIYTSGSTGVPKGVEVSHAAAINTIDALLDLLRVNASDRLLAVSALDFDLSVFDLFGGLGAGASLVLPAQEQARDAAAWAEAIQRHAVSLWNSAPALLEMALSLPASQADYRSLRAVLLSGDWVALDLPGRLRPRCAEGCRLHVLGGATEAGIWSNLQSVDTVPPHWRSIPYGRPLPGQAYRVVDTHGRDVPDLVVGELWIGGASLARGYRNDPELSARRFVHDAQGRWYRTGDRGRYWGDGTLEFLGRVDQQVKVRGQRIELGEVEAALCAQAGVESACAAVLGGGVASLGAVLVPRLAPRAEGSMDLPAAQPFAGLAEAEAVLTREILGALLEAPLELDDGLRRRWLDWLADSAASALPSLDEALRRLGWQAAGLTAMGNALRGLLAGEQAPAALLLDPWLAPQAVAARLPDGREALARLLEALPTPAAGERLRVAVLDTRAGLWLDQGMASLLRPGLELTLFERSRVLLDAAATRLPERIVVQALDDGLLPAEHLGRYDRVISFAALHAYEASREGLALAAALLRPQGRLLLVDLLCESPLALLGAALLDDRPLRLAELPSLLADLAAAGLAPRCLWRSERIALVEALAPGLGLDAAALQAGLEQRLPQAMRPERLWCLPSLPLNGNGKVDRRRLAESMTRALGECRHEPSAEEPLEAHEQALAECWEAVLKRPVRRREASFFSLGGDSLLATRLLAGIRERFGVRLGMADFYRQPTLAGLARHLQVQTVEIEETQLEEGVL

Target: PchE (Pseudomonas aeruginosa, UniProt G3XCV2)
Details: A domain, both chains of conformation 2 (3.78 A)

For `Nc1ncnc2c1ncn2[C@@H]1O[C@H](COP(=O)(O)O)[C@@H](O)[C@H]1O` [AMP], the cryo-EM structure was “Both chains have their Asub domain rotated relative to the Acore (complexed with AMP)”.
